# Experiment: in vivo
# Conditions: mouse, po
# Description: The determination of the acute toxicity was carried out on male mice (NMRI) with a body weight of 18-23 g. All experimental animals were fasted for 20 hours before commencement of the experiment. Water was available ad libitum. To each dosage group there belonged four animals. The dosage sequence was logarithmic. The test substances were administered intragastrally as suspension in 0.88% Methocel. The volume of administration amounted to 20 ml/kg.
smiles,measurement,value
O=C1NC(=O)C(c2ccccc2)(c2ccccc2)N1 [phenytoin],LD50 at 168 h,490 mg/kg
same,selectivity ratio,2.5 to 213

# From patent publication US4563471A, “4-Oxothiazolidin-2-ylidene-acetamide derivatives as CNS agents” (Warner-Lambert Company, priority 1983, dated 1986)
